Assay results taken from PMC10117637, “Differences in tissue distribution ability of evodiamine and dehydroevodiamine are due to the dihedral angle of the molecule stereo-structure” (Frontiers in Pharmacology, 2023).
Values joined by “and” are separate entries in the source; they are usually repeats but may differ in a detail not shown here. Identical values can stand only once. “Also recorded” adds a separate entry of the source. Like-named read-outs stand apart in the source and are kept apart here.

Experiments:
[1] = Tissue distribution and PK after tail vein injection; format: in vivo, mice
Description: The mixture was then transferred to a sterile centrifuge tube after being repeatedly ground for 30 min with a tiny amount of ordinary saline added. After that, saline was added and ultrasonically processed for 1 h. In a vacuum freeze drier, the suspension was freeze-dried for 30 h. To make the injection, the freeze-dried powder was ultimately redissolved in regular saline. After acclimatization, all mice were acclimated before being randomly placed into four groups of three each: EDM (H) group, EDM (L) group, DEDM (H) group, DEDM (L) group. […] Supernatant plasma from the collected sample was transferred into another tube and kept at −80°C until analysis after being centrifuged at 3,000 rpm for 10 min. Immediately after blood was obtained, the mice were dissected. Saline was injected into the heart until the liver turned white. […] The calibration standards, tissue samples, and plasma samples were pretreated with acetonitrile for protein precipitation. […] To remove the denatured protein, the mixture was vortexed for 1 min and then centrifuged at 16,500 rpm for 10 min. The supernatant was finally injected into the LC-MS/MS in an aliquot of 100 µL for analysis. […] Using an isocratic elution, the EDM and DEDM were analyzed. […] With a flow rate of 0.3 mL/min, the ratio between A and B was 20: 80 for 4 min. The column temperature was kept at 35°C. Prior to injection, samples were transferred in an auto-sampler at a temperature of 4°C and 5 µL was the injection volume. […] The ion source was electrospray ionization (ESI) and adopts positive ion mode. The scan mode was multiple reaction monitoring (MRM). The operating conditions for the EDM and DEDM were 4000 V capillary voltage. The dry gas flow was 11 min per liter, and the dry gas temperature was 300°C. […] Acetonitrile was used to prepare standard stock solutions for each type of EDM and DEDM individually. By diluting the standard stock solutions serially with acetonitrile, working standards for the EDM and DEDM were made. The calibration curve samples were acquired by spiking the series working standard solutions (10 μL) into a tube and evaporating the solvent, and then adding blank mouse tissue homogenate or plasma (100 μL). […] DEDM is used as an internal standard compound when detecting EDM. Meanwhile, when DEDM is detected, EDM is used as the internal standard compound. The final concentration of the internal standard compound is 10 ng/mL. […] For the Non-compartmental PK analysis, Thermo Kinetica (Version 5.0, Thermo Electron Corporation, Waltham, MA) was employed. Based on observed data, the time when the maximum tissue concentration was reached (Tmax) and the maximum tissue concentration (Cmax) were assessed. […] Additionally, the mean residence time (MRT) was computed. PK parameters are reported as the mean of […]. Linear and non-linear regressions were analyzed in Microsoft Excel 2016® (United States).

[2] = test system: Caco-2 cells; test: Cell viability assay (MTT), nontoxic concentration; format: cell-based, human; conditions: 48 h
Description: The cytotoxicity of EDM and DEDM was assessed in Caco-2 cells using the aforementioned MTT test. These alkaloids were produced as solutions in DMSO and then diluted in cell culture media. Inoculating Caco-2 cells (1 × 10^4cells/well) in 96-well plates with 200 μL of media. After additional 48 h of incubation with EDM and DEDM (final test alkaloids concentrations ranged from 0.4 to 200 μM, and DMSO was less than 0.05%), the medium was discarded. To each well, an aliquot of 190 μL freshly prepared DMEM (serum-free) having 10.0 μL MTT (5 mg/mL) was added. The medium in every well was then removed from the plate after a further 4 h at 37°C of incubation. In 100 μL of DMSO, the purple formazan product was dissolved. Using a microplate reader, the ratio of absorbance (treated to untreated cells) at 490 nm was employed to measure cell viability.

[3] = test system: Caco-2 cell monolayers; conditions: pH 7.4
[4] = set-up: method as in Lin et al., 2012; conditions: ref Lin et al., 2012; cited from earlier work
[5] = test system: liver; set-up: method as in Li et al., 2019; conditions: long-term toxicity experiments, production of AST, LDH, ALT, ALP; ref Li et al., 2019; cited from earlier work
[6] = test system: liver; set-up: method as in Zhang Y. et al., 2018; conditions: C57BL/6 N mice, 80 mg/kg orally; ref Zhang Y. et al., 2018; cited from earlier work
[7] = test system: Caco-2 cell monolayers; test: Caco-2 cell transport assay (Papp, efflux ratio); conditions: Caco-2 monolayers
[8] = Blood, 2.5 mg/kg tail vein, mice, average
[9] = Blood, 5 mg/kg tail vein, mice, average
[10] = Brain, 2.5 mg/kg tail vein, mice, average
[11] = Brain, 5 mg/kg tail vein, mice, average
[12] = Heart, 2.5 mg/kg tail vein, mice, average
[13] = Heart, 5 mg/kg tail vein, mice, average
[14] = Kindy, 2.5 mg/kg tail vein, mice, average
[15] = Kindy, 5 mg/kg tail vein, mice, average
[16] = Liver, 2.5 mg/kg tail vein, mice, average
[17] = Liver, 5 mg/kg tail vein, mice, average
[18] = Lung, 2.5 mg/kg tail vein, mice, average
[19] = Lung, 5 mg/kg tail vein, mice, average
[20] = Spleen, 2.5 mg/kg tail vein, mice, average
[21] = Spleen, 5 mg/kg tail vein, mice, average

Molecule: C[n+]1c2n(c(=O)c3ccccc31)CCc1c-2[nH]c2ccccc12 [dehydroevodiamine]
- AUC0-∞ ([1]; mouse, in vivo, 5 mg/kg): 1.36 µg·h/g
- MRT ([1]; mouse, in vivo, 5 mg/kg): 4.38 h

Molecule: evodiamine
- Nontoxic concentration [2]: 12.5 µM
- AUC0-t [1, 8]: 0.08 µg·h/g
- AUC0-∞ [1, 8]: 0.19 µg·h/g
- Cmax [1, 8]: 0.019 µg/g
- MRT [1, 8]: 23.50 h
- T1/2 [1, 8]: 17.30 h
- Tmax [1, 8]: 0.25 h
- AUC0-t [1, 9]: 0.25 µg·h/g
- AUC0-∞ [1, 9]: 0.56 µg·h/g
- Cmax [1, 9]: 0.125 µg/g
- MRT [1, 9]: 23.77 h
- T1/2 [1, 9]: 19.51 h
- Tmax [1, 9]: 0.25 h
- AUC0-t [1, 10]: 0.45 µg·h/g
- AUC0-∞ [1, 10]: 0.70 µg·h/g
- Cmax [1, 10]: 0.057 µg/g
- MRT [1, 10]: 11.30 h
- T1/2 [1, 10]: 6.53 h
- Tmax [1, 10]: 6.00 h
- Cmax [1, 11]: 0.110 µg/g
- MRT [1, 11]: 6.00 h
- Tmax [1, 11]: 4.00 h
- AUC0-t ([1]; Brain, 5 mg/kg tail vein, mice, average, 5 mg/kg): 1.10 µg·h/g
- AUC0-t ([1]; Brain, 5 mg/kg tail vein, mice, average, listed as EDM, 5 mg/kg): 1.1 µg·h/g
- AUC0-t [1, 12]: 0.68 µg·h/g
- Cmax [1, 12]: 0.097 µg/g
- MRT [1, 12]: 6.02 h
- Tmax [1, 12]: 0.25 h
- Cmax [1, 13]: 0.176 µg/g
- MRT [1, 13]: 6.36 h
- Tmax [1, 13]: 6.00 h
- AUC0-t ([1]; Heart, 5 mg/kg tail vein, mice, average, 5 mg/kg): 1.66 µg·h/g
- AUC0-t ([1]; Heart, 5 mg/kg tail vein, mice, average, listed as EDM, 5 mg/kg): 1.16 µg·h/g
- AUC0-t [1, 14]: 1.48 µg·h/g
- AUC0-∞ [1, 14]: 1.80 µg·h/g
- Cmax [1, 14]: 0.481 µg/g
- MRT [1, 14]: 6.98 h
- T1/2 [1, 14]: 4.63 h
- Tmax [1, 14]: 1.50 h
- Cmax [1, 15]: 0.332 µg/g
- MRT [1, 15]: 5.56 h
- Tmax [1, 15]: 0.25 h
- AUC0-t ([1]; Kindy, 5 mg/kg tail vein, mice, average, 5 mg/kg): 2.04 µg·h/g
- AUC0-t [1, 16]: 5.99 µg·h/g
- AUC0-∞ [1, 16]: 10.19 µg·h/g
- Cmax [1, 16]: 0.792 µg/g
- MRT [1, 16]: 13.97 h
- T1/2 [1, 16]: 9.66 h
- Tmax [1, 16]: 0.25 h
- AUC0-t [1, 17]: 37.94 µg·h/g
- AUC0-∞ [1, 17]: 58.48 µg·h/g
- Cmax [1, 17]: 10.128 µg/g
- MRT [1, 17]: 11.57 h
- T1/2 [1, 17]: 8.84 h
- Tmax [1, 17]: 0.25 h
- AUC0-t [1, 18]: 445.42 µg·h/g
- AUC0-∞ [1, 18]: 1676.98 µg·h/g
- Cmax [1, 18]: 45.866 µg/g
- MRT [1, 18]: 38.32 h
- T1/2 [1, 18]: 26.42 h
- Tmax [1, 18]: 6.00 h
- AUC0-t [1, 19]: 986.45 µg·h/g
- AUC0-∞ [1, 19]: 3,159.59 μg/g*h
- Cmax [1, 19]: 113.757 µg/g
- MRT [1, 19]: 31.88 h
- T1/2 [1, 19]: 22.05 h
- Tmax [1, 19]: 0.75 h
- AUC0-t [1, 20]: 41.71 µg·h/g
- AUC0-∞ [1, 20]: 71.73 µg·h/g
- Cmax [1, 20]: 7.473 µg/g
- MRT [1, 20]: 13.73 h
- T1/2 [1, 20]: 9.30 h
- Tmax [1, 20]: 0.50 h
- AUC0-t [1, 21]: 38.41 µg·h/g
- AUC0-∞ [1, 21]: 74.00 µg·h/g
- Cmax [1, 21]: 8.140 µg/g
- MRT [1, 21]: 16.53 h
- T1/2 [1, 21]: 11.73 h
- Tmax [1, 21]: 0.25 h
- time to maximum plasma concentration (Cmax) ([1]; mice, plasma, tail vein injection): ≤ 15 min
- Papp [3]: 1 ×10⁻⁶ cm/s and ~1 ×10⁻⁶ cm/s and ≥ 1 ×10⁻⁶ cm/s
- oral bioavailability [4]: 0.1%
- hepatotoxicity [5]: highly hepatotoxic
- hepatotoxicity [6]: no discernible hepatotoxicity
- permeability class ([7]; from Papp level): medium permeability
- bidirectional transport comparison, secretory (basolateral→apical) vs absorptive (apical→basolateral) permeability ([7]; listed as EDM): nearly equal; also recorded: nearly comparable
